Measured values taken from paper PMC4624480 (Biochemistry, 2015).

By UniProt entry, the sequences of proteins in these tests, tags left out. Where a name states a change or a piece, a line headed by the entry shows the natural chain unless it says otherwise.
UniProt P37353: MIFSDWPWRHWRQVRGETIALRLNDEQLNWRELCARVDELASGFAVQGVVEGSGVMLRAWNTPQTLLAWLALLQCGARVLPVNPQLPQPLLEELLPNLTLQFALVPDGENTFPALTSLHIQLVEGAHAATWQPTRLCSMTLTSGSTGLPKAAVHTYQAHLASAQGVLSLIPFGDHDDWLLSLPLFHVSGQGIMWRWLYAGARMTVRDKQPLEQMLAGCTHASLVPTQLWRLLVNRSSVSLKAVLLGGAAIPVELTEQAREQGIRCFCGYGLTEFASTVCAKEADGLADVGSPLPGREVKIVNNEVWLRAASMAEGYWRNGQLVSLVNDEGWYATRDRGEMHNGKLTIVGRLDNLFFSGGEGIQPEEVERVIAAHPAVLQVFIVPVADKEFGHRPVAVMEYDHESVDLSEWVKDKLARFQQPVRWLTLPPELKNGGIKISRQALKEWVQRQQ

Target: E. coli MenE (ecMenE) (Escherichia coli, UniProt P37353)
Type: biochemical

MSB-AMS [compound 2] showed an IC50 greater than 100 µM.
